Assay results as given in patent US5128359A, “Benzimidazole and azabenzimidazole derivatives which are thromboxane receptor antagonists, their methods of preparation” (Laboratoires UPSA, priority 1990, dated 1992).

Target: T1, TXA2 receptors of human platelets (Homo sapiens, UniProt P21731)
T1 construct: Human platelets incubate in the presence of a single concentration; endogenous in cells; host or cells: human platelets
T1 sequence (P21731 1-343): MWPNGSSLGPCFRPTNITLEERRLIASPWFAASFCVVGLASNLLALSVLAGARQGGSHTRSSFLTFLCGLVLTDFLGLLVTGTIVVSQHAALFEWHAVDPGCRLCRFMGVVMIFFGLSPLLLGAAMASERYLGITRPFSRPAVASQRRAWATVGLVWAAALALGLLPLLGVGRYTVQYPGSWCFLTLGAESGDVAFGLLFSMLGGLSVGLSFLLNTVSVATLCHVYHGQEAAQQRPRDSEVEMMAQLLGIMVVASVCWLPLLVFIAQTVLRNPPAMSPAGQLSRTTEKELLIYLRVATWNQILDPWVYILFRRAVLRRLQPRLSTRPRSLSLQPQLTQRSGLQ
Experiment: displacement of radioligand [^125 I]PTA-OH specifically bound to the TXA2 receptors of human platelets
Format: binding
Conditions: determined according to the formula of CHENG and PRUSOFF, read-out: Ki (inhibition constant)
Procedure: The affinity of the products of the Examples described for thromboxane A2 receptors is evaluated by the technique of displacing a radioligand specifically bound to the TXA2 receptors of human platelets. […] The reaction is completed by the addition of a buffer, followed by rapid filtration through […] filters. […] The results are expressed, for the doses tested, as the percentage displacement of the radioligand specifically bound to the TXA2 receptors of human platelets.

Ki: 15 nM
SMILES: CC(C)(CC(=O)O)Cc1nc2cc(F)ccc2n1Cc1ccc(Br)cc1F [Example 105, 4-[1-(2-Fluoro-4-bromobenzyl)-5-fluorobenzimidazol-2-yl]-3,3-dimethylbutanoic acid]
